pIC50: −log10 of the molar value.
Target: TBK1 (Homo sapiens (Human), UniProt Q9UHD2)
Assay: TBK1 TR-FRET enzymatic assay;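 note: phosphorylation of a biotinylated Ser/Thr peptide by purified full-length recombinant TBK1, read by TR-FRET after 240 min at 25 °C, IC50 is the geometric mean of at least four runs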
Details: not given

Amino acid sequences for entries named in this document (tags omitted). A change or cut given only in a name is not applied to a line headed by its entry.
UniProt Q9UHD2: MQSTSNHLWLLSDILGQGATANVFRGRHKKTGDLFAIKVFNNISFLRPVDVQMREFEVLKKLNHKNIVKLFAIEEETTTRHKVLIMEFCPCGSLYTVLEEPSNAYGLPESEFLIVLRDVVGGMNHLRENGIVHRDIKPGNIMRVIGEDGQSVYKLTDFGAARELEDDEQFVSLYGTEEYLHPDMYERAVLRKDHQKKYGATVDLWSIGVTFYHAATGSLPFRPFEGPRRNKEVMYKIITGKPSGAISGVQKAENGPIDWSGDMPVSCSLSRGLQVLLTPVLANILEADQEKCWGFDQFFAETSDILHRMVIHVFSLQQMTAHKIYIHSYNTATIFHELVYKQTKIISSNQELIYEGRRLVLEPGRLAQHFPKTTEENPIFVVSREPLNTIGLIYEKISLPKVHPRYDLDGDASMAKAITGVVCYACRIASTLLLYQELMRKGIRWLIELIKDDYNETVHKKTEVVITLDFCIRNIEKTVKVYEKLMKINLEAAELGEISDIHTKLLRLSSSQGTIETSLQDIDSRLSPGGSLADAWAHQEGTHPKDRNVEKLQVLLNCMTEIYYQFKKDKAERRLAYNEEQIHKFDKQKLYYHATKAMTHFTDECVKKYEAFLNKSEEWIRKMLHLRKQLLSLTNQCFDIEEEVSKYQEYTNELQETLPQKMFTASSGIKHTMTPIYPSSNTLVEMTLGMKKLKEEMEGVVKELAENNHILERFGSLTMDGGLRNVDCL
UniProt O60674: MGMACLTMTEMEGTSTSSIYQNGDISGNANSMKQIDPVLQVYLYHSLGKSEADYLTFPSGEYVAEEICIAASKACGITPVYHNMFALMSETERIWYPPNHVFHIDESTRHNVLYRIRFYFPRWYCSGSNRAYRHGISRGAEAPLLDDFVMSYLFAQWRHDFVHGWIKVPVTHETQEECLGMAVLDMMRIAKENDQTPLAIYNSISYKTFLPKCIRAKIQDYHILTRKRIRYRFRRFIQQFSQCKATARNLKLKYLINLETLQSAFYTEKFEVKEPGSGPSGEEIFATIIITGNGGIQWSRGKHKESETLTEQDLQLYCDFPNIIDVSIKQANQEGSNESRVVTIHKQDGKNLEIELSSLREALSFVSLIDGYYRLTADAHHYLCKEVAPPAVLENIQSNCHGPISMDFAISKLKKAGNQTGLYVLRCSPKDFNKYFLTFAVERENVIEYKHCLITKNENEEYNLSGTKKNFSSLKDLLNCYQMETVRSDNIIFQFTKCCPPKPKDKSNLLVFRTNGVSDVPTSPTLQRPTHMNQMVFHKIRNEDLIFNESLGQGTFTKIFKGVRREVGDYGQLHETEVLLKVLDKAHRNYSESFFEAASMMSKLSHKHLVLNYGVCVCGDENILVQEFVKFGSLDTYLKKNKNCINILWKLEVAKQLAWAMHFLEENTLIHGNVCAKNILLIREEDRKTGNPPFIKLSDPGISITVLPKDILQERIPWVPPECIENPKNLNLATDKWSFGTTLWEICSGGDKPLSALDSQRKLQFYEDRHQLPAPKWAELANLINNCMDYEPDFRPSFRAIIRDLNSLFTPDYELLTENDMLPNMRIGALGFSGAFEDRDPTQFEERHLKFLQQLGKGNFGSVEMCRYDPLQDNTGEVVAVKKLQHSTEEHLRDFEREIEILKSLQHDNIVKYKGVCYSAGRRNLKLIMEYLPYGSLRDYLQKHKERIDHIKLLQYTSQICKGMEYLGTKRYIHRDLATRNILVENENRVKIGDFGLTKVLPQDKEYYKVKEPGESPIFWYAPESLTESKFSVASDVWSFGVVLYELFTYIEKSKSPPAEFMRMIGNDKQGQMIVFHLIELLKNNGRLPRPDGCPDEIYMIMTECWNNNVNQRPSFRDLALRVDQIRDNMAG
UniProt Q14164: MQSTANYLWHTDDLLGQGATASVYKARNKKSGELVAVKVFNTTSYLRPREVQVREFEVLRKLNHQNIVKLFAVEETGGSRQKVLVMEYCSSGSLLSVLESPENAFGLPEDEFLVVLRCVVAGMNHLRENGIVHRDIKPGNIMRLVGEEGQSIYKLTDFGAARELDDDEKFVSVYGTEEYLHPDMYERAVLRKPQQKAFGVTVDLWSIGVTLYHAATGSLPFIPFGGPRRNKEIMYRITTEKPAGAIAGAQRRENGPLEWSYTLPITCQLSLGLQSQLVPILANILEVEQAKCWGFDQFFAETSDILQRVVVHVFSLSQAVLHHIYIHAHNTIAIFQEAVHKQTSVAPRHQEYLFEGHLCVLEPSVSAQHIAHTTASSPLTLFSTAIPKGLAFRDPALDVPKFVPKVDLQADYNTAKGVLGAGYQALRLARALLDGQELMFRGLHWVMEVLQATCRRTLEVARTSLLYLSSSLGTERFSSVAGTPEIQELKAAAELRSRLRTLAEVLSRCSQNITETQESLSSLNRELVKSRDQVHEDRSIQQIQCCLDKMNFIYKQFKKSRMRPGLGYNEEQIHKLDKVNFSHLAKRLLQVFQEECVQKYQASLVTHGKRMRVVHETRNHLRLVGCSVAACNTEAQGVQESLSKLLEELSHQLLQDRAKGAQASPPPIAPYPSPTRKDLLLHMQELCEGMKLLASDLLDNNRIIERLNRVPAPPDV

Row | SMILES | pIC50
1 | N#Cc1cc(-c2ncnc(Nc3ccc(N4CCN(C5COC5)CC4)cc3)n2)ccc1O[C@@H]1CCN(C(=O)CO)C[C@@H]1F (racemic) [Example 218, 2-((cis-3-fluoro-1-(2-hydroxyacetyl)piperidin-4-yl)oxy)-5-(4-((4-(4-(oxetan-3-yl)piperazin-1-yl)phenyl)amino)-1,3,5-triazin-2-yl)benzonitrile] | 9.00
2 | C[C@@H](O)C(=O)N1CC[C@H](Oc2ccc(-c3ncnc(Nc4ccc(N5CCN(C6COC6)CC5)cc4)n3)cc2C#N)[C@H](F)C1 [Example 464, 2-(((3R,4S)-3-fluoro-1-((R)-2-hydroxypropanoyl)piperidin-4-yl)oxy)-5-(4-((4-(4-(oxetan-3-yl)piperazin-1-yl)phenyl)amino)-1,3,5-triazin-2-yl)benzonitrile] | 8.10
3 | N#Cc1cc(-c2ncnc(Nc3ccc(N4CCN(C5COC5)CC4)cc3)n2)ccc1O[C@@H]1CCN(C(=O)CO)C[C@H]1F [Example 235, 2-(((3R,4R)-3-fluoro-1-(2-hydroxyacetyl)piperidin-4-yl)oxy)-5-(4-((4-(4-(oxetan-3-yl)piperazin-1-yl)phenyl)amino)-1,3,5-triazin-2-yl)benzonitrile] | 8.70
4 | C[C@H](O)C(=O)N1CC[C@H](Oc2ccc(-c3ncnc(Nc4ccc(N5CCN(C6COC6)CC5)c(C#N)c4)n3)cc2C#N)[C@H](F)C1 [Example 369, 5-((4-(3-cyano-4-(((3R,4S)-3-fluoro-1-((S)-2-hydroxypropanoyl)piperidin-4-yl)oxy)phenyl)-1,3,5-triazin-2-yl)amino)-2-(4-(oxetan-3-yl)piperazin-1-yl)benzonitrile] | 8.52
5 | N#Cc1cc(-c2ncnc(Nc3ccc(N4CCN(C5COC5)CC4)cc3)n2)ccc1O[C@H]1CCN(C(=O)[C@@H]2CCCN2)C[C@H]1F [Example 133, 2-(((3R,4S)-3-fluoro-1-((S)-pyrrolidine-2-carbonyl)piperidin-4-yl)oxy)-5-(4-((4-(4-(oxetan-3-yl)piperazin-1-yl)phenyl)amino)-1,3,5-triazin-2-yl)benzonitrile] | 6.32
6 | C[C@H](O)C(=O)N1CC[C@@H](Oc2ccc(-c3ncnc(Nc4ccc(N5CCN(C6COC6)CC5)cc4)n3)cc2C#N)[C@H](F)C1 [Example 234, 2-(((3R,4R)-3-fluoro-1-((S)-2-hydroxypropanoyl)piperidin-4-yl)oxy)-5-(4-((4-(4-(oxetan-3-yl)piperazin-1-yl)phenyl)amino)-1,3,5-triazin-2-yl)benzonitrile] | 8.40
7 | N#Cc1cc(-c2ncnc(Nc3ccc(N4CCN(C5COC5)CC4)cc3)n2)ccc1O[C@@H]1CCN(C(=O)CO)C[C@@H]1F [Example 224, 2-(((3S,4R)-3-fluoro-1-(2-hydroxyacetyl)piperidin-4-yl)oxy)-5-(4-((4-(4-(oxetan-3-yl)piperazin-1-yl)phenyl)amino)-1,3,5-triazin-2-yl)benzonitrile] | 8.05
8 | N#Cc1cc(-c2ncnc(Nc3ccc(N4CCN(C5COC5)CC4)cc3)n2)ccc1O[C@H]1CCN(C(=O)CO)C[C@H]1F [Example 237, 2-(((3R,4S)-3-fluoro-1-(2-hydroxyacetyl)piperidin-4-yl)oxy)-5-(4-((4-(4-(oxetan-3-yl)piperazin-1-yl)phenyl)amino)-1,3,5-triazin-2-yl)benzonitrile] | 9.00

Target: hJAK2 (Homo sapiens (Human), UniProt O60674)
Assay: hJAK2 LANCE TR-FRET enzymatic assay
Format: biochemical
Details: read-out: JAK2 IC50

Row | SMILES | pIC50
9 | C[C@H](O)C(=O)N1CC[C@H](Oc2ccc(-c3ncnc(Nc4ccc(N5CCOC[C@@H]5CO)cc4)n3)cc2C#N)[C@H](F)C1 [Example 387, 2-(((3R,4S)-3-fluoro-1-((S)-2-hydroxypropanoyl)piperidin-4-yl)oxy)-5-(4-((4-((S)-3-(hydroxymethyl)morpholino)phenyl)amino)-1,3,5-triazin-2-yl)benzonitrile] | 6.20
10 | C[C@@H](O)C(=O)N1CC[C@@H](Oc2ccc(-c3ncnc(Nc4ccc(N5CCN(C6COC6)CC5)cc4)n3)cc2C#N)C1 [Example 91, 2-(((R)-1-((R)-2-hydroxypropanoyl)pyrrolidin-3-yl)oxy)-5-(4-((4-(4-(oxetan-3-yl)piperazin-1-yl)phenyl)amino)-1,3,5-triazin-2-yl)benzonitrile] | 6.16
11 | N#Cc1cc(-c2ncnc(Nc3ccc(N4CCN(C5COC5)CC4)cc3)n2)ccc1O[C@@H]1CN(C(=O)CO)C[C@@H]1F [Example 101, 2-(((3R,4S)-4-fluoro-1-(2-hydroxyacetyl)pyrrolidin-3-yl)oxy)-5-(4-((4-(4-(oxetan-3-yl)piperazin-1-yl)phenyl)amino)-1,3,5-triazin-2-yl)benzonitrile] | 6.20
12 | N#Cc1cc(-c2ncnc(Nc3ccc(N4CCN(C5COC5)CC4)cc3)n2)ccc1O[C@H]1CCOC1 [Example 216, (S)-5-(4-((4-(4-(oxetan-3-yl)piperazin-1-yl)phenyl)amino)-1,3,5-triazin-2-yl)-2-((tetrahydrofuran-3-yl)oxy)benzonitrile] | 6.55
13 | C[C@H](O)C(=O)N1CC[C@H](Oc2ccc(-c3ncnc(Nc4ccc(N5CCN(C6COC6)CC5)c(C#N)c4)n3)cc2C#N)[C@H](F)C1 [Example 369, 5-((4-(3-cyano-4-(((3R,4S)-3-fluoro-1-((S)-2-hydroxypropanoyl)piperidin-4-yl)oxy)phenyl)-1,3,5-triazin-2-yl)amino)-2-(4-(oxetan-3-yl)piperazin-1-yl)benzonitrile] | 6.14
14 | C[C@H](O)C(=O)N1CC[C@@H](Oc2ccc(-c3ncnc(Nc4ccc(N5CCN(C6COC6)CC5)cc4)n3)cc2C#N)C1 [Example 88, 2-(((R)-1-((S)-2-hydroxypropanoyl)pyrrolidin-3-yl)oxy)-5-(4-((4-(4-(oxetan-3-yl)piperazin-1-yl)phenyl)amino)-1,3,5-triazin-2-yl)benzonitrile] | 6.31

Target: IKKε (Homo sapiens (Human), UniProt Q14164)
Assay: IKKε TR-FRET enzymatic assay
Format: biochemical
Details: TR-FRET, 2×Km ATP; geometric mean of minimum four determinations; read-out: IKKe IC50

Row | SMILES | pIC50
15 | N#Cc1cc(-c2ncnc(Nc3ccc(N4CCN(C5COC5)CC4)cc3)n2)ccc1O[C@H]1CCN(C(=O)[C@@H]2C[C@@H](O)C(=O)N2)C[C@H]1F [Example 403, 2-(((3R,4S)-3-fluoro-1-((2S,4R)-4-hydroxy-5-oxopyrrolidine-2-carbonyl)piperidin-4-yl)oxy)-5-(4-((4-(4-(oxetan-3-yl)piperazin-1-yl)phenyl)amino)-1,3,5-triazin-2-yl)benzonitrile] | 8.22
16 | C[C@H]1OC(=O)N[C@@H]1C(=O)N1CC[C@H](Oc2ccc(-c3ncnc(Nc4ccc(N5CCN(C6COC6)CC5)cc4)n3)cc2C#N)[C@H](F)C1 [Example 523, 2-(((3R,4S)-3-fluoro-1-((4S,5R)-5-methyl-2-oxooxazolidine-4-carbonyl)piperidin-4-yl)oxy)-5-(4-((4-(4-(oxetan-3-yl)piperazin-1-yl)phenyl)amino)-1,3,5-triazin-2-yl)benzonitrile] | 7.59
17 | N#Cc1cc(-c2ncnc(Nc3ccc(N4CCN(C5COC5)CC4)cc3)n2)ccc1O[C@H]1CCN(C(=O)[C@@H]2C[C@@H](F)C(=O)N2)C[C@H]1F [Example 405, 2-(((3R,4S)-3-fluoro-1-((2S,4R)-4-fluoro-5-oxopyrrolidine-2-carbonyl)piperidin-4-yl)oxy)-5-(4-((4-(4-(oxetan-3-yl)piperazin-1-yl)phenyl)amino)-1,3,5-triazin-2-yl)benzonitrile] | 8.00
18 | Cc1cc(Nc2ncnc(-c3ccc(O[C@H]4CCN(C(=O)[C@@H](O)CO)C[C@H]4F)c(C#N)c3)n2)ccc1N1CCN(C2COC2)CC1 [Example 575, 2-(((3R,4S)-1-((S)-2,3-dihydroxypropanoyl)-3-fluoropiperidin-4-yl)oxy)-5-(4-((3-methyl-4-(4-(oxetan-3-yl)piperazin-1-yl)phenyl)amino)-1,3,5-triazin-2-yl)benzonitrile] | 9.00

Same assay, conditions: read-out: IKKe IC50

Row | SMILES | pIC50
19 | C[C@@H](O)C(=O)N1CC[C@@H](Oc2ccc(-c3ncnc(Nc4ccc(N5CCN(C6COC6)CC5)cc4)n3)cc2C#N)C1 [Example 91, 2-(((R)-1-((R)-2-hydroxypropanoyl)pyrrolidin-3-yl)oxy)-5-(4-((4-(4-(oxetan-3-yl)piperazin-1-yl)phenyl)amino)-1,3,5-triazin-2-yl)benzonitrile] | 6.22
20 | N#Cc1cc(-c2ncnc(Nc3ccc(N4CCN(C5COC5)CC4)cc3)n2)ccc1O[C@@H]1CN(C(=O)CO)C[C@@H]1F [Example 101, 2-(((3R,4S)-4-fluoro-1-(2-hydroxyacetyl)pyrrolidin-3-yl)oxy)-5-(4-((4-(4-(oxetan-3-yl)piperazin-1-yl)phenyl)amino)-1,3,5-triazin-2-yl)benzonitrile] | 7.59
21 | C[C@H](O)C(=O)N1CC[C@@H](Oc2ccc(-c3ncnc(Nc4ccc(N5CCN(C6COC6)[C@H](C)C5)cc4)n3)cc2C#N)C(F)(F)C1 [Example 245, 2-(((R)-3,3-difluoro-1-((S)-2-hydroxypropanoyl)piperidin-4-yl)oxy)-5-(4-((4-((R)-3-methyl-4-(oxetan-3-yl)piperazin-1-yl)phenyl)amino)-1,3,5-triazin-2-yl)benzonitrile] | 7.59
22 | CC1(C)CN(C(=O)CO)CC[C@@H]1Oc1ccc(-c2ncnc(Nc3ccc(N4CCN(C5COC5)CC4)cc3)n2)cc1C#N (single isomer, unassigned) [Example 175] | 8.30
23 | N#Cc1cc(-c2ncnc(Nc3ccc(N4CCN(C5COC5)CC4)cc3)n2)ccc1O[C@H]1CCN(C(=O)CO)C[C@H]1F [Example 237, 2-(((3R,4S)-3-fluoro-1-(2-hydroxyacetyl)piperidin-4-yl)oxy)-5-(4-((4-(4-(oxetan-3-yl)piperazin-1-yl)phenyl)amino)-1,3,5-triazin-2-yl)benzonitrile] | 9.00
24 | N#Cc1cc(-c2ncnc(Nc3ccc(N4CCN(C5COC5)CC4)cc3)n2)ccc1O[C@H]1CCN(C(=O)CO)CC1(F)F (single isomer, unassigned) [Example 152] | 7.85
25 | N#CCC(=O)N1CCC(Oc2ccc(-c3ncnc(Nc4ccc(N5CCN(C6COC6)CC5)cc4)n3)cc2C#N)CC1 [Example 44, 2-((1-(2-cyanoacetyl)piperidin-4-yl)oxy)-5-(4-((4-(4-(oxetan-3-yl)piperazin-1-yl)phenyl)amino)-1,3,5-triazin-2-yl)benzonitrile] | 7.59
26 | N#Cc1cc(-c2ncnc(Nc3ccc(C(N)=O)cc3)n2)ccc1O[C@@H]1CCN(C(=O)CO)C1 [Example 85, (R)-4-((4-(3-cyano-4-((1-(2-hydroxyacetyl)pyrrolidin-3-yl)oxy)phenyl)-1,3,5-triazin-2-yl)amino)benzamide] | 7.59
27 | C[C@H](O)C(=O)N1CC[C@H](Oc2ccc(-c3ncnc(Nc4ccc(N5C6COCC5C6)cc4)n3)cc2C#N)[C@H](F)C1 [Example 366, 5-(4-((4-(3-oxa-6-azabicyclo[3.1.1]heptan-6-yl)phenyl)amino)-1,3,5-triazin-2-yl)-2-(((3R,4S)-3-fluoro-1-((S)-2-hydroxypropanoyl)piperidin-4-yl)oxy)benzonitrile] | 8.70
